HCMV NEC inh = inhibitors of HCMV UL50-UL53 nuclear egress complex interaction. inhibition, % (concentration not given with the values). HTRF UL50-UL53 interaction, normalized percent inhibition. 0.15% of 190,000 active; in the data active = inhibition above about 27%, passing the limit was not always enough
GIV Gai3 FP = inhibitors of GIV peptide binding to Galpha-i3, primary screen, biochemical, fluorescence polarization, FITC-GIV GBA peptide, rat Galphai3 | Guanine nucleotide-binding protein G(i) subunit alpha-3 (Rattus norvegicus), P08753 | 90 min; active compounds read low; scaled: aluminum fluoride 0%, vehicle 100% | 210,000 tested, 0.42% active | AID 1224905, 2016 | percent of control (FP), % (no concentration beside the values);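 active means replicate mean at 85% of control or lower, very high polarization wells dropped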;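 further: wells of about 15 µL received 100 nL stock; the first replicate is given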
GIV-Gai FP conf = GIV-Galpha-i3 inhibition, FP confirmation; shares compounds with GIV Gai3 FP; FITC-GIV peptide binding to Galphai3, fluorescence polarization; hits give low values; fluorescence polarization, mP at 100 µM; 38% of 580 active; AID 1259350;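 active = inhibition score of 15 or more, meaning 100 minus mean polarization as percent of control over three replicates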;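 note: lower mP means peptide displaced from Galphai3 so more inhibition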
GIV-Gai AS conf = GIV-Galpha-i3 inhibition, AlphaScreen confirmation. shares compounds with GIV Gai3 FP. AlphaScreen counts at 100 µM. 39% of 580 active. AlphaScreen Galphai3-GIV binding, purified proteins, 90 min; hits give low values;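 active = inhibition score at or above a set limit, where the score is 100 minus the three-replicate mean percent of control signal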
* hit, by the source's call; . = no result given. Sampled rows, rich in hits. Any-hit rate of the full collection: about 0.43%.

The chains behind the UniProt entries cited, without tags or fusion partners.
Guanine nucleotide-binding protein G(i) subunit alpha-3 (Rattus norvegicus), P08753, UniProt P08753, whole entry, looked up: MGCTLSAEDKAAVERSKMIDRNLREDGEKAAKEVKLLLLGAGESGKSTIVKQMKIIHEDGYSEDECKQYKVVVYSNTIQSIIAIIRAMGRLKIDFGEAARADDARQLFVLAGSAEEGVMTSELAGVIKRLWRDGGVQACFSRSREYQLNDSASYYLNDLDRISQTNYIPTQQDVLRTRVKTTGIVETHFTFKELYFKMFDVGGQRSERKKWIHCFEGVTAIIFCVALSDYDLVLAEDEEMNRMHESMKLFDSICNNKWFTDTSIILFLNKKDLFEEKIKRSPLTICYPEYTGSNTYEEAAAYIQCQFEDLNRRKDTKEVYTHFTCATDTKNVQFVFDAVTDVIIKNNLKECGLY

| cpd | mol | HCMV NEC inh | GIV Gai3 FP |
| --- | --- | --- | --- |
| 1 | Cc1cccn2c(=O)cc(COc3cccc(NC(=O)COc4ccc(F)cc4)c3)nc12 | . | 99.5 |
| 2 | Cc1cccn2c(=O)cc(COc3cccc(NC(=O)COc4ccccc4)c3)nc12 | . | 94.5 |
| 3 | O=C(/C=C/c1ccc(F)cc1)NC(=S)NCc1ccco1 | -20.0 | 95.0 |
| 4 | COC(=O)c1c(O)ccc(-c2ccc(NC(C)=O)cc2)c1C(=O)OC | -6.3 | 101.5 |
| 5 | Cn1c(=O)cc(N2CCCCC2)[nH]c1=O | -15.6 | 107.2 |
| 6 | CN(N)c1cc(=O)n(C)c(=O)[nH]1 | -48.8 | 63.6* |
| 7 | Clc1ccc(OCCCN2CCN(Cc3ccccc3)CC2)cc1 | 0.2 | 107.8 |
| 8 | O=C(CCc1n[nH]c(=O)[nH]c1=O)N/N=C/c1ccccc1 | -20.7 | 106.5 |
| 9 | COCCn1c(C)cc(C=C2C(=O)NC(=O)NC2=O)c1C | -35.1 | 98.1 |
| 10 | COCCn1c(C)cc(C=C2C(=O)N(C)C(=S)N(C)C2=O)c1C | . | 92.7 |
| 11 | Cc1cc(=O)cc(C)n1-c1ccc(O)cc1 | 2.3 | . |
| 12 | Cc1cc(=O)n(-c2ccc(O)cc2)[nH]1 | 68.9* | 77.0* |
| 13 | COC(=O)C1=C(C(=O)OC)SC(=C2C(=S)C(C)(C)N(C(=O)COc3ccccc3)c3ccc(OC)cc32)S1 | . | 104.8 |
| 14 | COc1ccc2nc(NC(=O)C3CCN(c4nc(-c5ccc(OC)c(OC)c5)no4)CC3)sc2c1 | . | 103.4 |
| 15 | CCOC(=O)c1c(C)oc2c1c(C=NC(C)c1ccccc1)c(O)c1ccccc12 (stereo not drawn) | . | 103.1 |

| cpd | GIV-Gai FP conf | GIV-Gai AS conf |
| --- | --- | --- |
| 1 | . | . |
| 2 | 78.8 | 34512 |
| 3 | . | . |
| 4 | . | . |
| 5 | . | . |
| 6 | 49* | 32708 |
| 7 | . | . |
| 8 | . | . |
| 9 | . | . |
| 10 | 70.3 | 21525* |
| 11 | . | . |
| 12 | 49.4* | 34971 |
| 13 | . | . |
| 14 | . | . |
| 15 | . | . |

Next entries:
| cpd | mol | HCMV NEC inh | GIV Gai3 FP |
| --- | --- | --- | --- |
| 16 | CCOC(=O)c1c(C)oc2c1c(O)c(N=O)c1ccccc12 | -52.9 | 42.0* |
| 17 | CN(C)CCNC(=O)c1nc(-c2ccc(S(=O)(=O)N(C)C)cc2)no1 | . | 104.8 |
| 18 | Nc1nonc1-c1noc(-c2ccc(COc3ccccc3Br)cc2)n1 | . | 111.4 |
| 19 | Oc1ccc(C=Nc2ccc(N3CCOCC3)cc2)cc1O | -29.3 | . |
| 20 | CCN1CCN(c2ccc(N=Cc3cc(I)ccc3O)cc2)CC1 | -29.2 | 28.1* |
| 21 | CN(C)c1ccc(-c2nnc3sc(-c4cccnc4)nn23)cc1 | -15.5 | 83.2* |
| 22 | CN(C)c1ccc(-c2nnc3sc(-c4ccncc4)nn23)cc1 | -63.3 | 106.0 |
| 23 | Cn1c(=O)c2nc3ccc(NC(=O)C(F)(F)F)cc3nc2n(C)c1=O | -73.7 | 78.9* |
| 24 | Cc1cc2nc3c(=O)n(C)c(=O)n(C)c3nc2cc1N | . | 95.5 |
| 25 | CCN(C(=S)NCc1ccccc1)C1CCCCC1 | -3.5 | . |
| 26 | COc1ccc(C(=O)Nc2c(C)nc3sc(C)cn3c2=O)cc1 | . | 102.8 |
| 27 | Cc1[nH]n(-c2ccccc2)c(=O)c1C(c1ccccc1OCc1ccccc1)c1c(C)[nH]n(-c2ccccc2)c1=O | . | 107.0 |
| 28 | CCOc1cc(C(c2c(C)[nH]n(-c3ccccc3)c2=O)c2c(C)[nH]n(-c3ccccc3)c2=O)ccc1OCc1ccccc1 | . | 81.7* |
| 29 | CCOc1ccc(C(c2c(C)[nH]n(-c3ccccc3)c2=O)c2c(C)[nH]n(-c3ccccc3)c2=O)cc1OC | 28.6 | 96.1 |
| 30 | CCOc1cc(C(c2c(C)[nH]n(-c3ccccc3)c2=O)c2c(C)[nH]n(-c3ccccc3)c2=O)ccc1OC | . | 69.5* |

| cpd | GIV-Gai FP conf | GIV-Gai AS conf |
| --- | --- | --- |
| 16 | 47.5* | 50417 |
| 17 | . | . |
| 18 | . | . |
| 19 | . | . |
| 20 | 80.8 | 28751 |
| 21 | 63.4 | 30008 |
| 22 | . | . |
| 23 | 66.8 | 29111 |
| 24 | . | . |
| 25 | . | . |
| 26 | . | . |
| 27 | . | . |
| 28 | 57.9* | 37780 |
| 29 | . | . |
| 30 | 61 | 9976* |

(next part)
| cpd | mol | HCMV NEC inh | GIV Gai3 FP |
| --- | --- | --- | --- |
| 31 | Cc1nn(CCCC(=O)Nc2cccc(F)c2)c(=O)c2c1sc1ccccc12 | -18.5 | 104.0 |
| 32 | O=C(CSC1=NS(=O)(=O)c2ccccc21)Nc1ccccc1 | -16.7 | 66.1* |
| 33 | COc1ccc(CCNC(=O)CSC2=NS(=O)(=O)c3ccccc32)cc1OC | -16.3 | 97.0 |
| 34 | O=c1oc2ccccc2c(O)c1C=Nc1ccccc1 | -14.5 | 107.5 |
| 35 | O=Cc1c(O)c2ccccc2c2ccccc12 | -26.6 | 43.8* |
| 36 | CC1Oc2ccc(NC(=O)c3ccc(F)cc3)cc2NC1=O (stereo not drawn) | -22.7 | 100.2 |
| 37 | O=c1sc2ccccc2n1Cc1ccccc1 | 3.5 | . |
| 38 | O=c1sc2ccccc2n1Cc1nnc(-c2ccccc2)o1 | 19.3 | 92.1 |
| 39 | CCOc1cc(N2CCOCC2)c(OCC)cc1NC(=O)C1=NN(c2ccccc2)C(=O)CC1 | -9.2 | . |
| 40 | CC(C)(O)CC1(CO)CCCCC1 | -3.8 | 92.1 |
| 41 | COc1ccc(/C=C/C(=O)C2CC2)cc1CSc1nc2ccccc2[nH]1 | . | 103.5 |
| 42 | CCCCC(C(=O)O)N1C(=O)/C(=C/c2cccnc2)SC1=S (stereo not drawn) | -44.8 | 83.3* |
| 43 | CCCC(C(=O)O)N1C(=O)/C(=C/c2ccc(C)cc2)SC1=S (stereo not drawn) | -16.0 | . |
| 44 | CCc1ccccc1NC(=O)c1ncoc1-c1ccco1 | . | 98.6 |

| cpd | GIV-Gai FP conf | GIV-Gai AS conf |
| --- | --- | --- |
| 31 | . | . |
| 32 | 59.2 | 10980* |
| 33 | . | . |
| 34 | . | . |
| 35 | 38.3* | 22285 |
| 36 | . | . |
| 37 | . | . |
| 38 | 74.4 | 33349 |
| 39 | . | . |
| 40 | 68.1 | 46516 |
| 41 | . | . |
| 42 | 71.8 | 35991 |
| 43 | . | . |
| 44 | . | . |

Printed as active in GIV-Gai AS conf (from the list above):
cpd	SMILES	GIV Gai3 FP	GIV-Gai FP conf	GIV-Gai AS conf
10	COCCn1c(C)cc(C=C2C(=O)N(C)C(=S)N(C)C2=O)c1C	92.7	70.3	21525*
30	CCOc1cc(C(c2c(C)[nH]n(-c3ccccc3)c2=O)c2c(C)[nH]n(-c3ccccc3)c2=O)ccc1OC	69.5*	61	9976*
32	O=C(CSC1=NS(=O)(=O)c2ccccc21)Nc1ccccc1	66.1*	59.2	10980*
